In the assay the test system is human NA-NK lymphocytes. Description: [3H] thymidine proliferation assay, NA-NK lymphocytes. Type of assay: cell-based. Conditions: read-out: IC50, inhibition of mitogen-induced proliferation of NA-NK lymphocytes; human non-adherent NK cells, 40 ng/mL PMA + 500 nM ionomycin, 72 h, [3H] thymidine incorporation, N = 3. For orientation: Incorporation of labelled thymidine or its analogues reports DNA synthesis.

The text below walks through data of publication PMC3968461 (Scientific Reports, 2014).

Each structure is given as a SMILES string.

`CC[C@H](C)[C@@H]1NC(=O)[C@@H](NC(=O)[C@H](CO)NC(=O)[C@H](CCCNC(=N)N)NC(=O)COCCOCCNC(=O)[C@@H](N)Cc2ccc(OP(=O)(O)O)cc2)CSSC[C@@H](C(N)=O)NC(=O)[C@H]([C@@H](C)O)NC(=O)CNC(=O)[C@@H]2CSSC[C@@H]3NC(=O)[C@H](CCC(N)=O)NC(=O)[C@H](Cc4ccccc4)NC(=O)[C@H](C)NC(=O)[C@H]([C@@H](C)O)NC(=O)[C@H](CSSC[C@H](NC(=O)[C@H](Cc4ccccc4)NC(=O)[C@H](CO)NC(=O)[C@H](CC(C)C)NC(=O)[C@H](CCCNC(=N)N)NC(=O)[C@H](Cc4ccc(O)cc4)NC(=O)[C@H](CCCCN)NC(=O)[C@H](CCSC)NC(=O)[C@H](CO)NC(=O)[C@H](Cc4c[nH]cn4)NC(=O)[C@H](CCCCN)NC3=O)C(=O)N[C@@H](CCCNC(=N)N)C(=O)N[C@@H](CCCCN)C(=O)N[C@@H]([C@@H](C)O)C(=O)N2)NC(=O)[C@H](CCCNC(=N)N)NC(=O)[C@H](CO)NC(=O)[C@H](CCCCN)NC(=O)[C@@H]2CCCN2C(=O)[C@H]([C@@H](C)CC)NC(=O)[C@H]([C@@H](C)O)NC(=O)[C@H](CC(=O)O)NC1=O` [ShK-186]: the IC50 lay in the range of 5 to 15 nM.
